pIC50: −log10 of the molar value.
Key:
XIAP BIR3 = molecular target: T1, XIAP BIR3 (Homo sapiens, UniProt P98170); assay: XIAP BIR3 binding assay (DELFIA), displacement of SMAC peptide
T1 construct: covering amino acids 241 to 356; XIAP BIR3; made in house; host or cells: E. coli
Protocol: (§1) Biological Methods XIAP BIR3 and cIAP1 BIR3 Binding Assays (DELFIA)
(§2) Peptide […]-Lys(Biotin), representing the N-terminus of mature human SMAC (SMAC peptide), was used as interaction partner in the protein-peptide interaction assay.
(§3) BIR3 domains (10 nM) were incubated with SMAC peptide (10 nM) in Assay Buffer (50 mM Tris, 120 mM NaCl, 0.1% BSA, 1 mM DTT, 0.05% TritonX100) for one hour at room temperature in the presence of inhibitiory compounds. The assay mixture was transferred to a strepatvidin coated plate and incubated for one hour at room temperature to allow binding of the biotinylated peptide and associated BIR3 domains to the plate. After several washing steps Eu labeled anti-GST antibody (e.g. Perkin Elmer DELFIA Eu-N1-antiGST AD0250) was added to detect BIR3 domain-SMAC peptide interactions according to Perkin Elmer's instructions. […] Time resolved Europium fluoresecence was measured in a Wallac Victor using Standard assay settings.
(§4) DELFIA assay results were plotted against compound concentrations and Software GraphPad Prizm was used to calculate half maximal inhibitory concentrations (IC50 values).

Chains of the proteins cited; added tags and fusions are not shown. Residues count along the entry.
UniProt P98170, 241-356: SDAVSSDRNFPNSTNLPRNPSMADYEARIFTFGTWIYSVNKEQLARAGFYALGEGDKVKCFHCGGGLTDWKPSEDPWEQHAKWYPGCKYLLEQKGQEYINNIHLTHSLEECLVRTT
UniProt Q13490, 256-363: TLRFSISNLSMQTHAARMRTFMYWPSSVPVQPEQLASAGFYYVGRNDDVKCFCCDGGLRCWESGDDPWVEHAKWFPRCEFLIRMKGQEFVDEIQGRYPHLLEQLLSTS

cIAP1 BIR3 = molecular target: T2, cIAP1 BIR3 (Homo sapiens, UniProt Q13490); assay: cIAP1 BIR3 binding assay (DELFIA), displacement of SMAC peptide
T2 construct: covering amino acids 256 to 363; cIAP1 BIR3; made in house; host or cells: E. coli
Protocol: as §1, §2, §3, §4

Q: `CNC(C)C(=O)Nc1ccc(-c2c(-c3ccncc3)nc3cc(C)ccn23)c(C#Cc2ccc3ncccc3c2)n1` (centres unmarked) [Example 27, 2-(methylamino)-N-[5-(7-methyl-2-pyridin-4-ylimidazo[1,2-a]pyridin-3-yl)-6-(2-quinolin-6-ylethynyl)pyridin-2-yl]propanamide] was tested. Which pIC50 (XIAP BIR3) did it give?
A: 7.10

Q: And the pIC50 (cIAP1 BIR3)?
A: 9.00

— patent US8859541B2, “6-alkynylpyridines” (Boehringer Ingelheim International GmbH, priority 2012, dated 2014)
